Results: PMC6588608 (Communications Biology, 2019)
Residue numbers refer to the chain shown, from its start. Where two headings read alike, the source gives them in different places.

Experiments:
[1] = molecular target: T1, ETB receptor (wild type) (Homo sapiens, UniProt P24530); experiment: TGFα shedding assay, antagonist activity against ET-1 (0.5 nM)-induced AP-TGFα release; format: cell-based; settings: for IC50: ET-1 0.5 nM
T1 construct: expressed in transfected cells; host or cells: HEK293A
T1 sequence (P24530 27-442): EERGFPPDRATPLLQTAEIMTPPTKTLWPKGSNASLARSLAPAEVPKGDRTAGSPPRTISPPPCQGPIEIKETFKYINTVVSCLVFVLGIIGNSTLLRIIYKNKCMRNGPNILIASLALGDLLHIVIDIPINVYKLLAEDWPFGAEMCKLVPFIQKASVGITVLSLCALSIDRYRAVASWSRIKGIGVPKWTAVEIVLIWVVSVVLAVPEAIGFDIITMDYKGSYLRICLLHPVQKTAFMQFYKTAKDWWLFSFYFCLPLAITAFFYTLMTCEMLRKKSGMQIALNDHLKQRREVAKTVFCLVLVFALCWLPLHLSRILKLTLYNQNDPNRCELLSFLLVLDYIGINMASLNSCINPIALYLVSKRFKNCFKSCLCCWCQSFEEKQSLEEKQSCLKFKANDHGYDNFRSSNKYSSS
Protocol: The TGFα shedding assay, which measures the activation of Gq/11 and G12/13 signaling, was performed as described previously. Briefly, a plasmid encoding an ETB construct with an internal FLAG epitope tag or an ETA construct was transfected, together with a plasmid encoding alkaline phosphatase (AP)-tagged TGFα (AP-TGFα), into HEK293A cells by using a polyethylenimine (PEI) transfection reagent (1 µg ETR plasmid, 2.5 µg AP-TGFα plasmid, and 25 µl of 1 mg per ml PEI solution per 10-cm culture dish). […] The AP-TGFα release signals were fitted to a four-parameter sigmoidal concentration-response curve, using the Prism 7 software (GraphPad Prism), and the pEC50 (equal to −log10 EC50) and Emax values were obtained.

[2] = molecular target: T2, ETB-L192^3.43Q (constitutively active ETB receptor) (Homo sapiens, UniProt P24530, L192Q); experiment: TGFα shedding assay, inverse agonist activity (4 h incubation)
T2 sequence (P24530 27-442 L192Q): T1 sequence (P24530 27-442) with L166Q

[3] = molecular target: T3, thermostabilized ETB receptor (ETB-Y4) (Homo sapiens, UniProt P24530, I381A/K270A/R124Y/S342A); experiment: TGFα shedding assay, antagonist activity against ET-1 (0.5 nM)-induced AP-TGFα release
T3 sequence (P24530 27-442 R124Y/K270A/S342A/I381A): T1 sequence (P24530 27-442) with R98Y, K244A, S316A, I355A

[4] = molecular target: T4, constitutively active ETB receptor (ETB-L3.43Q) (Homo sapiens, UniProt P24530, L192Q); experiment: as above
T4 sequence (P24530 27-442 L192Q): T1 sequence (P24530 27-442) with L166Q

Cc1cc(C)cc(C(=O)N(C)C(Cc2ccc(-c3ccccc3)cc2)C(=O)NC(Cc2c[nH]c3ccccc23)C(=O)O)c1 (stereo not drawn) [IRL2500]
IC50 ([1]; Fig. 1a, HEK293 cells, read-out: pIC50 ± SEM ETB (converted)): 35.5 nM
IC50 ([1]; Supplementary Fig. 5d, ETB (WT), read-out: IC50): 52 nM
IC50 ([1]; Table 2, ETB-WT, n=6, read-out: pIC50 (mean ± SEM) (converted)): 21.4 nM
Kb ([1]; Table 2, ETB-WT, read-out: pKB (mean ± SEM) (converted)): 2.4 nM
EC50 ([2]; EC50, Table 3, reduction of basal activity for inverse agonists): 0.92 nM
EC50 ([2]; pEC50 (mean ± SEM), Table 3): 0.933 nM
IC50 [3]: 89 nM
IC50 ([4]; IC50, Supplementary Fig. 5d): 22 nM
IC50 ([4]; pIC50 ± SEM, Supplementary Fig. 5d): 21.4 nM
